Among the data in PubChem BioAssay AID373 (The Scripps Research Institute Molecular Screening Center, 2006) are activation values, retold here.

Chains of the proteins cited; added tags and fusions are not shown.
UniProt Q99500, whole entry: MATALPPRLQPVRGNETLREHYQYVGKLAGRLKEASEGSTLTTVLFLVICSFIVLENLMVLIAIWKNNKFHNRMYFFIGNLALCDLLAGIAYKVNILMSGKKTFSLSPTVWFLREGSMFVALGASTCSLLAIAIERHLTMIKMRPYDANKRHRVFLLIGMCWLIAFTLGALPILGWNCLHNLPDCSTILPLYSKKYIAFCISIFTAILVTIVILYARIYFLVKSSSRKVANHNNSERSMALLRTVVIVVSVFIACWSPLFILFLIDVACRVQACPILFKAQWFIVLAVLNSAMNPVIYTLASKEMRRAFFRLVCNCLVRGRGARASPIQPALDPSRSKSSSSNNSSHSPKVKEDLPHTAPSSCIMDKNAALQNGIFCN

The list shows a part of the results, in another mix than the full data. The source made the active and inactive calls.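 Rule for the calls: active = activation above the screen-wide mean plus 3 SD (cut at about 4.5% in these data, passing the limit was not always enough); inactive = the rest, inconclusive results apart.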

The target in the test is Sphingosine 1-phosphate receptor 3 (Homo sapiens) (UniProt Q99500). Briefly: activators of S1P3 receptor signaling – cell-based, primary and confirmation, NFAT-BLA reporter, primary screen (AID 373). The following applies: S1P3 NFAT-BLA reporter cells, agonism, FRET ratio; at 4.5 µM; hits give high values; relative to 1 µM S1P, basal subtracted.
On to `CCN(CC)CC(O)COC(=O)C(O)(c1ccccc1)C1CCCCC1` (stereo unspecified), for which the activation is inactive: -4.2%.
Consider `COc1ccccc1OP(C)(=O)Nc1c(C)n(C)n(-c2ccccc2)c1=O` (stereo unspecified), for which the activation is inactive: -0.1%.
With `CP(=O)(Oc1ccccc1)N1CCOC1=O` (stereo unspecified), the activation is inactive: 0%.
Turning to `Cc1nc2ccc3ccccc3c2o1.O=[N+]([O-])c1cc([N+](=O)[O-])c(O)c([N+](=O)[O-])c1`, the activation was inactive: -0.3%.
As for `COc1ccccc1OP(C)(=O)Nc1ccc(C)c(C)c1` (stereo unspecified), the figure is inactive: 0%; as for `CP(=O)(Nc1ccccn1)Oc1ccccc1` (stereo unspecified), inactive: -1.3%.
As to `CP(=O)(Nc1ccccc1F)Oc1ccccc1` (stereo unspecified), the activation is inactive: -0.2%.
To `CN(C)CCOC(=O)C(O)(c1ccccc1)C1CCCCC1` (stereo unspecified) belongs inactive: -0.9%.
To `Cc1ccccc1NP(C)(=O)Nc1ccccc1C` belongs inactive: 0.6%.
For `CCOP(C)(=S)SCC(=O)NC(C)(CC)C(=O)O` (stereo unspecified), the activation is inactive: 0.7%.
To `Cc1nc2ccc3ccccc3c2s1.O=[N+]([O-])c1cc([N+](=O)[O-])c(O)c([N+](=O)[O-])c1` belongs inactive: -0.5%; to `Cc1ccc(C)c(NP(C)(=O)Oc2ccccc2)c1` (stereo unspecified), inactive: -0.9%; to `Cc1ccc(NP(C)(=O)Oc2ccccc2)c(C)c1` (stereo unspecified), inactive: -2.2%.
To `COc1ccccc1OP(C)(=O)Nc1ccc(C)cc1` (stereo unspecified) belongs inactive: -0.8%.
With `CP(=S)(Nn1cnnc1)Oc1ccccc1` (stereo unspecified), the activation is inactive: 0.2%.
To `CCOP(C)(=S)SCC(=O)NC(C)C(=O)O` (stereo unspecified) belongs inactive: -1.8%.
